Among the data in PubChem BioAssay AID463173 (ICCB-Longwood Screening Facility, Harvard Medical School, 2010) are survival values, retold here.

The entries are a selection whose mix differs from that of the whole data set. Some results for these compounds are left out of this collection, so the calls shown say nothing about other tests. Calls of active or inactive are those of the source. No stated cut-off is given here; in the data, active means survival mostly below about 52% (no sharp cut-off); inactive means mostly above about 56%.

The experiment concerns DeltatarO mutant. As to the kind of experiment: growth inhibition of S. aureus wild type versus tarO mutant, primary screen, teichoic acid synthesis inhibitors, RN4220, OD600 (AID 463173). The conditions noted are these: OD600, 18 h, hits give low values, screened at 18.75 µg/mL (by protocol).
Regarding `Cc1cccc(C(=O)NCC2(N(C)C)CCCCC2)c1`, the survival is inactive: 85%.

As to `COc1cc(C(=O)NCC2(N(C)C)CCCCC2)cc(OC)c1OC`, the survival was inactive: 88%.

Regarding `CN1C2CCC1CC(OC(=O)C(O)(c1ccccc1)c1ccccc1)C2` (configuration not stated), the survival was inactive: 78%.

Regarding `CC(C)Oc1ccc(C(=O)NCC2(N(C)C)CCCCC2)cc1`, the survival was inactive: 86%.

For the compound `COc1cccc(C(=O)NCC2(N3CCOCC3)CCCCC2)c1`, the survival was inactive: 96%.

Consider `CC(C)COc1ccc(C(=O)NCC2(N(C)C)CCCCC2)cc1`, for which the survival is inactive: 96%.

Consider `COc1ccc(C(=O)NCC2(N(C)C)CCCCC2)cc1Cl`, for which the survival is inactive: 88%.

`CCOc1cccc(C(=O)NCC2(N(C)C)CCCCC2)c1`: the survival was inactive: 98%.

On to `CN(C)C1(CNC(=O)c2ccccc2[N+](=O)[O-])CCCCC1`, for which the survival was inactive: 97%.

Regarding `CCCCOc1ccccc1C(=O)NCC1(N(C)C)CCCCC1`, the survival is inactive: 87%.

Consider `CN(C)C1(CNC(=O)c2cccc(Cl)c2)CCCCC1`, for which the survival was inactive: 93%.

Turning to `CN(C)C1(CNC(=O)c2ccccc2F)CCCCC1`, the survival is inactive: 96%.
